Columns and labels:
Conditions in all cases: 72 h
Calu-3 [1] = assay: cell viability relative to DMSO; higher = less toxic
HepG2 [2] = assay: as above
Caco-2 [3] = assay: as above
Vero E6 [4] = assay: as above
Calu-3 [5] = assay: relative viability EC50 (midpoint between 100% and the lowest measured viability); higher = less toxic
HepG2 [6] = assay: as above
Caco-2 [7] = assay: as above
Vero E6 [8] = assay: as above
Calu-3 [9] = assay: drug sensitivity score (DSS) for viability; higher = more toxic; extreme values may be limits of the assay
HepG2 [10] = assay: as above
Caco-2 [11] = assay: as above
Vero E6 [12] = assay: as above

COc1cc(Br)c(C[N+]2(CCOCCC3CCC4CC3C4(C)C)CCOCC2)cc1OC (stereo not drawn) [pinaverium]
cell viability [%]
Conditions | 1 nM | 10 nM | 100 nM | 1000 nM | 10000 nM
Caco-2 [3] | 104 | 84.9 | 108 | 79 | 82.8
Calu-3 [1] | 105 | 95.9 | 101 | 90.8 | 98
HepG2 [2] | 104 | 105 | 102 | 104 | 94.6
Vero E6 [4] | 109 | 99.5 | 106 | 105 | 96.1

Conditions | drug sensitivity score | relative viability EC50 [µM]
Caco-2 [7] | – | > 10
Caco-2 [11] | 2.6 | –
Calu-3 [5] | – | > 10
Calu-3 [9] | 0 | –
HepG2 [6] | – | > 10
HepG2 [10] | 0 | –
Vero E6 [8] | – | > 10
Vero E6 [12] | 0 | –

From the supplement of paper PMC13380429
